Screens (PubChem)
RAD54 inh – inhibitors of human RAD54 branch migration. RAD54 Holliday junction branch migration, FAM/BHQ fluorescence. inhibition, % at 10.4 µM. 360,000 tested, 0.14% active. AID 602329;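 active means mean normalized replicate activity at least 40 and at least half of replicates scoring 40 or more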;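 further: 0% = median of neutral control wells and 100% = median of positive control wells; inhibitors cause a drop in the FAM fluorescence signal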
UUG fidelity – alters start codon recognition fidelity in yeast. S. cerevisiae UUG-firefly luciferase reporter, luminescence/redox ratio. AID 602363. activity score, % at 18.7 µM. hit rate 0.13% among 350,000;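 active = replicate mean at a twofold rise or more, about +100% in these data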;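 note: firefly luciferase made from a UUG start codon reports start codon fidelity; reporter light over untreated wells divided by growth signal over untreated wells; some hits fall short of that in this replicate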
PglD inh – inhibitors of Campylobacter jejuni PglD acetyltransferase; 360,000 tested, 0.098% active; inhibition, % at 12.5 µM; AID 602405; purified PglD enzyme, DTNB colorimetric CoA detection; in the data active means inhibition above about 16%, passing the limit was not always enough
Casp6 inh – blocks human caspase-6 cleavage activity | purified caspase-6, Z-VEID-R110 cleavage fluorescence | inhibition, % at 12.5 µM | 350,000 tested, 0.53% active | AID 686996;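 active means mean inhibition across replicates at least about 35%, with every replicate also reaching that limit, limit read from the data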;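 further: 0% = median of neutral control wells and 100% = no fluorescence left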
INS-1E GSIS act – primary screen for activators of insulin secretion dependent on glucose, INS-1E cells, GLuc reporter luminescence; INS-1E GLuc reporter insulin secretion, 2-3 h; 370,000 tested, 0.61% active; AID 743287; activation, % at 16.6 µM;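 active means lowest replicate activation of at least 40%, so every replicate reaches that level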;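 further: 0% = median of neutral control wells and 100% = median of IBMX positive control wells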
RAD52 inh – blocks human RAD52 DNA annealing. P43351. recombinant RAD52 DNA annealing, FRET fluorescence. inhibition, % at 18.7 µM. 360,000 tested, 0.46% active;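 active means every replicate showing at least 50% inhibition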
* = called active by the depositor; · = no result; ! = repeats disagree. The list is not random: actives were taken first. Their share in the collection is about 1.5%.

mol	RAD54 inh	UUG fidelity	PglD inh	Casp6 inh	INS-1E GSIS act	RAD52 inh
O=C1NC(=O)/C(=C/c2ccc(-c3cc(C(=O)O)ccc3Cl)o2)S1	-14	-2	-11	5	-54	-26
O=C1NC(=O)/C(=C\c2ccc(Br)o2)S1	-7	-14	-1	49*	-38	-22
COc1cc(C(C(=O)NC2CCCCC2)N(Cc2cccs2)C(=O)Cc2c[nH]c3ccccc23)cc(OC)c1OC (configuration not stated)	3	-14	-1	·	·	·
O=c1[nH][nH]c2c([N+](=O)[O-])ccc(F)c12	·	·	·	66*	9	-9
CSc1ccccc1C(=O)OCC(=O)Nc1cccnc1Cl	-1	-5	0	0	43*	-4
CCCCCCSc1ccc([C@H]2N[C@@](C)(C(=O)OC)[C@H]3C(=O)N(CC)C(=O)[C@@H]23)cc1	-7	-9	2	0	-16	0
Nc1ccc(Cc2ccc(N)c(C(=O)O)c2)cc1C(=O)O	8	-6	3	44*	44	-20
Cc1ccnn1-c1ccc(C(=O)NCC(c2ccco2)N2CCCC2)cc1 (configuration not stated)	-3	-14	-5	-1	30	-24
CCOc1ccc(-n2nnnc2-c2nc3ccccc3s2)cc1	·	·	·	·	90*	·
OC1(c2cccc(C(F)(F)F)c2)CCN(Cc2nc(-c3cnccn3)no2)CC1	1	-12	-6	-3	7	-14
COc1ccc(NC(=O)N2[C@@H]3CNC[C@H]2C3c2ccc(-c3ccc(F)cc3)cc2)cc1 (some centres not stated)	·	·	·	2	-4	57*
COc1ccc(NC(=O)N2[C@@H]3CNC[C@H]2C3c2ccc(/C=C/c3ccccc3)cc2)cc1 (some centres not stated)	·	·	·	-1	-7	55*
COc1ccc(NC(=O)N2[C@@H]3CNC[C@H]2C3c2ccc(-c3ccc(OC)cc3)cc2)cc1 (some centres not stated)	·	·	·	-1	-7	2
COc1ccc(-c2ccc(C3[C@H]4CNC[C@@H]3N4C(=O)Nc3ccc(C(F)(F)F)cc3)cc2)cc1 (some centres not stated)	·	·	·	1	-16	66*!
CCOC(=O)C1=C(N)N(c2ccccc2)C2=C(C(=O)CCC2)C1c1cccnc1 (configuration not stated)	·	·	·	·	-9	·
Cc1ccccc1NC(=O)CN1C(=O)S/C(=C\c2ccc(-c3cc(C(=O)O)ccc3C)o2)C1=O	·	·	·	0	17	-436
CCOC(=O)C(C)N1C(=O)S/C(=C\c2ccc(-c3ccccc3C(=O)O)o2)C1=O (configuration not stated)	-7	40	7	60*	-18	-119
Cc1cc(C(=O)O)ccc1-c1ccc(/C=C2\SC(=O)N(CC(=O)Nc3ccc4c(c3)OCO4)C2=O)o1	2	21	0	3	3	-259
C#CCN1C(=O)S/C(=C\c2ccc(-c3ccc(C(=O)O)cc3C)o2)C1=O	-5	-12	4	58*	-24	-68
Cc1ccc2c(nc3s/c(=C\c4ccc(-c5ccccc5C(=O)O)o4)c(=O)n32)c1C	2	-11	1	0	-13	-13

An excerpt from above in order of their number in INS-1E GSIS act, lowest first:
structure	INS-1E GSIS act
CCOC(=O)C(C)N1C(=O)S/C(=C\c2ccc(-c3ccccc3C(=O)O)o2)C1=O (configuration not stated)	-18
CCOC(=O)C1=C(N)N(c2ccccc2)C2=C(C(=O)CCC2)C1c1cccnc1 (configuration not stated)	-9
COc1ccc(NC(=O)N2[C@@H]3CNC[C@H]2C3c2ccc(-c3ccc(OC)cc3)cc2)cc1 (some centres not stated)	-7
COc1ccc(NC(=O)N2[C@@H]3CNC[C@H]2C3c2ccc(-c3ccc(F)cc3)cc2)cc1 (some centres not stated)	-4
Cc1ccccc1NC(=O)CN1C(=O)S/C(=C\c2ccc(-c3cc(C(=O)O)ccc3C)o2)C1=O	17

Next compounds:
mol	RAD54 inh	UUG fidelity	PglD inh	Casp6 inh	INS-1E GSIS act	RAD52 inh
Cc1ccc(C(=O)O)cc1-c1ccc(/C=C2\SC(=O)N(CC(=O)Nc3ccccc3)C2=O)o1	-5	10	-2	35*	-2	-116
O=C(C[n+]1ccccc1)N/N=C/c1ccc(F)cc1	·	·	·	-27	-5	-10
COc1ccc2c(c1)CCc1cc(C(=O)O)sc1-2	-7	5	-4	16	65*	-10
Cc1ccc(N/N=C(\C#N)C(N)=S)cc1C	·	·	·	-1	7	-11
O=C(c1coc2ccc(O)c(CN3CCOCC3)c12)C1CC1	0	-12	1	·	·	·
O=C(c1cccs1)c1coc2ccc(O)c(CN3CCOCC3)c12	9	-9	0	2	65*	9
CSc1ccc(CN2CCC2(C)C(=O)Nc2cccc(NS(C)(=O)=O)c2)cc1 (configuration not stated)	1	-12	-2	41*	·	-10
CCc1nnc(NC(=O)CSc2sc3c(O)cc(=O)[nH]c3c2C#N)s1	-6	-2	0	65*	1	-64
CCSc1nnc(NC(=O)CSc2sc3c(O)cc(=O)[nH]c3c2C#N)s1	-4	-7	5	44*	12	-95
Cc1csc(NC(=O)CSc2nc3[nH]c(=O)cc(O)c3s2)n1	7	2	0	-1	-11	-7

Next section (2 carried over from the part before).
mol	RAD54 inh	UUG fidelity	PglD inh	Casp6 inh	INS-1E GSIS act	RAD52 inh
CCSc1nnc(NC(=O)CSc2sc3c(O)cc(=O)[nH]c3c2C#N)s1	-4	-7	5	44*	12	-95
Cc1csc(NC(=O)CSc2nc3[nH]c(=O)cc(O)c3s2)n1	7	2	0	-1	-11	-7
Cc1csc(NC(=O)CSc2sc3c(O)cc(=O)[nH]c3c2C#N)n1	-9	-5	-1	79*	5	-21
Cc1cc(NC(=O)CSc2sc3c(O)cc(=O)[nH]c3c2C#N)ccc1Br	·	·	·	9	8	-38
CCOC(=O)N1CCC(NC(=O)Cn2c3c(c(-c4ccccc4Cl)cc2=O)CCC3)CC1	8	0	-2	1	·	-2
CN(C)C1N(C(=O)c2ccccc2)N=C2c3ccccc3S(=O)(=O)N21 (configuration not stated)	6	4	4	0	25	5
Cc1cc(=O)[nH]c(-c2ccccc2O)n1	1	-1	-4	0	7	-1
Cc1cc2nc(-c3ccccc3O)[nH]c2cc1C	-1	-11	-5	-4	40*	-21
CSc1ccc2nnc(-c3cccc(F)c3)n2n1	7	-21	-1	·	53*	·
CCOC(=O)CC(=O)CSc1ccc2nnc(-c3cccc(F)c3)n2n1	6	-17	-5	·	13	·
COC(=O)COc1ccc(C)cc1-n1nc2ccccc2n1	-2	-17	-3	-1	48*	-8
CCOC(=O)c1cccc(-c2ccc(C=O)o2)c1	-1	4	-4	2	49*	-10
CCOC(=O)c1ccc(-c2ccc(C=O)o2)cc1	·	·	·	3	·	-45
CCOc1ccc(CN2C(=O)c3ccccc3C2=O)cc1C(=O)Nc1nnc(SCC)s1	6	-11	-6	·	44*	·
COc1nc(-c2ccc(Cl)cc2)ccc1-c1noc(-c2ccco2)n1	4	-10	-2	·	66*	·
COc1ccc2c(c1)-c1ccccc1S(=O)(=O)N2C	1	0	-2	·	·	·
CCC(=O)N(C)C[C@@H]1Oc2ncc(-c3ccccc3C)cc2C(=O)N([C@@H](C)CO)C[C@H]1C	4	1	0	0	2	-1
CCc1ccc(N(C2C=CS(=O)(=O)C2)S(=O)(=O)c2ccccc2)cc1 (configuration not stated)	·	·	·	·	86*	·
Cc1ccc(S(=O)(=O)N(c2cccc(C(F)(F)F)c2)C2C=CS(=O)(=O)C2)cc1 (configuration not stated)	·	·	·	-4	-5	-5
O=S(=O)(c1ccc(-c2ccccc2)cc1)N1C[C@@H]2N[C@H](C1)C2c1ccc(-c2ccncc2)cc1 (some centres not stated)	·	·	·	·	5	·
